“And” between values parts separate entries of the source, which are not always exact repeats. Identical values can stand only once. Counter-ions that a name gives are not always drawn.
How the values were obtained:
[1] = test system: liver regeneration after partial hepatectomy; assay: Liver regeneration after 70% hepatectomy, BrdU labeling index; assay type: in vivo, Sprague-Dawley rats; conditions: EA-HCl 10 mg/rat
liver of healthy rats = assay: BrdU labeling index of liver in healthy rats; assay type: in vivo, Sprague-Dawley rats; conditions: EA-HCl 10 mg/rat

In the case of `NCCO` [EA-HCl, monoethanolamine-HCl], the BrdU labeling index ([1]; individual rats, 70% hepatectomy) is reported as 38.5% and 51.8% and 45.2% and 45.1% and 37.5% and 41.6% and 47.4%, the “BrdU labeling index, Mean ± SD” value ([1]; n = 7, 70% hepatectomy) is reported as 43.9 ± 5.1% and the BrdU labeling index (liver of healthy rats; individual healthy rats) is reported as 1.0% and 1.1% and 1.5%. The “BrdU labeling index, Mean ± SD” value (liver of healthy rats; n = 3, healthy rats) was 1.2 ± 0.3%.

Source: US5972914A, “Remedies for liver diseases” (Meiji Milk Products Co., Ltd., priority 1998, dated 1999)
